Data on eight molecules can be found in patent US20190300590A1 (PROTAGONIST THERAPEUTICS, published 2019).

Assay [1] concerns the target T1, IL23R_huFC (human, UniProt Q5VWK5 24-353).
T1 sequence (looked up): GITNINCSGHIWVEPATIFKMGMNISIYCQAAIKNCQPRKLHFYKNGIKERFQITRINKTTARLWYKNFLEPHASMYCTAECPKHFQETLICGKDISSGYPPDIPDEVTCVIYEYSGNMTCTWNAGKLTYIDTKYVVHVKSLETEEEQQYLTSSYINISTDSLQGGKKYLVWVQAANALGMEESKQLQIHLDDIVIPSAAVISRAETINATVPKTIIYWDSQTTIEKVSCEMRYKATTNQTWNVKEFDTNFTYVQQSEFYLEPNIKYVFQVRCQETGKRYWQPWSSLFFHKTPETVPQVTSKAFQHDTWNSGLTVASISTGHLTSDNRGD
The assay can be described thus: IL23-IL23R competitive binding ELISA. (In general: ELISA stands for enzyme-linked immunosorbent assay.)

Assay [2] addresses T2, Recombinant human IL-23 (Humanzyme) (human, UniProt Q9NPF7 20-189; P29460 23-328).
T2 sequence (looked up) 1: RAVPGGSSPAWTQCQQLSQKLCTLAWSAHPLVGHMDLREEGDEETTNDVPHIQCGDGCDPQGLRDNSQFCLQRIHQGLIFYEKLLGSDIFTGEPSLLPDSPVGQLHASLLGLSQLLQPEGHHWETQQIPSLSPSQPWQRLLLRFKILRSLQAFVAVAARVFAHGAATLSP
T2 sequence (looked up) 2: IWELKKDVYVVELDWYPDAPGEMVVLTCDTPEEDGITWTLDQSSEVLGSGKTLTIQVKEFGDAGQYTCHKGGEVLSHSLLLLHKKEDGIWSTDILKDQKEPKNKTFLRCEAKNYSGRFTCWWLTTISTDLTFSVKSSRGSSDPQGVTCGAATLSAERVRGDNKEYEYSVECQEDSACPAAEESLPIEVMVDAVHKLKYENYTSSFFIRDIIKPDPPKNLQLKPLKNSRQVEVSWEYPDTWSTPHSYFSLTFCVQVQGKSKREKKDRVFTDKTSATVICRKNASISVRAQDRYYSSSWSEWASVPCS
The assay is described as follows: SPR, IL-23R_huFC captured on anti-human IgG, IL-23 as analyte. A general note: SPR reads the build-up and loss of mass on a sensor chip optically.

Assay [3] addresses T3, IL23R_huFC (human, UniProt Q5VWK5 24-353).
T3 sequence (looked up): T1 sequence (looked up)
The assay can be described thus: IL23-IL23R competitive ELISA.

The IC50 is the concentration at which inhibition is half-maximal. A low value points to greater potency. In the case of CRTWQCYWQEKGTD (Ac; NH2) [Ac-CRTWQCYWQEKGTD-NH2], the IC50 with IL23R_huFC [1] is 118 nM.

B1: Recombinant human IL-23R_huFC (RnD) (Fc fusion, UniProt Q5VWK5 24-353, looked up, not shown: a dimerising Fc or GST)
chain: T1 sequence (looked up)
By Kd is commonly meant the concentration at which binding is half-saturated. For the molecule B1, the Kd in assay [2] was 1.69 nM.

For the molecule CQTWQCYWLENGL (Ac; hLeu; NH2) [Ac-CQTWQCYW-[hLeu]-ENGL-NH2], in the assay with IL23R_huFC [1], the IC50 stood at 174 nM. This counts as sub-micromolar. Same read-out and setting: in the case of CQTWQCYWLETG (Ac; hLeu; NH2) [Ac-CQTWQCYW-[hLeu]-ETG-NH2] it was 818 nM; in that of CQTWQCYWLPNG (Ac; hLeu; NH2) [Ac-CQTWQCYW-[hLeu]-PNG-NH2], 4830 nM; in that of CQTWQCYWLTNG (Ac; hLeu; NH2) [Ac-CQTWQCYW-[hLeu]-TNG-NH2], 109 nM. The same measure, in the same setting: the result for CQTWQCYWRNFESG (Ac; NH2) [Ac-CQTWQCYWRNFESG-NH2] reads 315 nM.

CRTWQCYWRENGAK (Ac-; [(D)Lys]; -NH2) [Ac-CRTWQCYWRENGA-[(D)Lys]-NH2]: in the assay with IL23R_huFC [3], the IC50 is 102 nM.
